US12492224B2, “Bicyclic peptide ligands specific for PD-L1” (BicycleTx Limited, priority 2018, dated 2025)

The chains behind the UniProt entries cited, without tags or fusion partners. Residues count along the entry.
UniProt Q9NZQ7, 19-290: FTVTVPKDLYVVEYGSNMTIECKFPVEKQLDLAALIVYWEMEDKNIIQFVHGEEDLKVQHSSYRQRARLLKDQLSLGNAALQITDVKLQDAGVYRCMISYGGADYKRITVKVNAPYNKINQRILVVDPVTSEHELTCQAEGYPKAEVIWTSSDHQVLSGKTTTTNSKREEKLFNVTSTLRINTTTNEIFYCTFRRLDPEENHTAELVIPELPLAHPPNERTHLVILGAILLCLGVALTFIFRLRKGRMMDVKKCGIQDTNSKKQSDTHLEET

target: T1, human PD-L1 (Homo sapiens, UniProt Q9NZQ7); assay: PD-L1 SPR Binding Assay (Biacore), human; settings: 25° C.
T1 construct: purchased Sino Biologicals or R&D systems
Experimental: The protein was desalted to remove uncoupled biotin using spin columns into PBS. For analysis of binding, a Biacore 3000 instrument was used utilizing a CM5 sensor chip (GE Healthcare). Streptavidin was immobilized on the chip using standard amine-coupling chemistry at 25° C. with HBS-N (10 mM HEPES, 0.15 M NaCl, pH 7.4) as the running buffer. The carboxymethyl dextran surface was activated with a 12 min injection of a 1:1 ratio of 0.4 M 1-ethyl-3-(3-dimethylaminopropyl) carbodiimide hydrochloride (EDC)/0.1 M N-hydroxy succinimide (NHS) at a flow rate of 10 μl/min. For capture of streptavidin, protein was diluted to 0.1 mg/ml in 10 mM sodium acetate (pH 4.5) and captured by injecting 70 μl onto the activated chip surface. Residual activated groups were blocked with a 7 min injection of 1 M ethanolamine (pH 8.5). Biotinylated PD-L1 stock was diluted 1:100 in HBS-N and captured on one flow cell at 5 μl/min to a level of 1000-1300 RU. Buffer was changed to PBS/0.05% Tween 20 and a dilution series of the peptides was prepared in this buffer with a final DMSO concentration of 0.5%. The top concentrations were 200 nM or 500 nM with 6 2-fold dilutions. The SPR analysis was run at 25° C. at a flow rate of Flow rate 50 μl/min with 60 seconds association and 400 seconds disassociation. Data were corrected for DMSO excluded volume effects. All data were double-referenced for blank injections and reference surface using standard processing procedures and data processing and kinetic fitting were performed using Scrubber software, version 2.0c (Biologic Software). Data were fitted using mass transport model allowing for mass transport effects where appropriate.

| Substance | Kd [nM] |
| --- | --- |
| Ac-ACSAGWLTMCQKLHLCPSH [BCY11833] | 32.5 |
| Ac-SDKCSAGWLTMCLKLHLCPSH [BCY11830] | 24.1 |
| Ac-SDKCSAGWLTMCQKLHLC [BCY11832] | 68.4 |
| Ac-SDKCS[Aad]GWL[3HyV]MCLKLHLC [BCY11829] | 43.6 |
| SDKCSAGWLTMCLKLHLCA [BCY10067] | 5.51 |
| SDKCSAGWLTMCQKLHLCA [BCY3835] | 30.1 |
| SDKCSAGWLTMCQKL[dA]LCA [BCY10072] | 22.5 |
| SDKCSAGWLTMCQ[HSer]LHLCA [BCY10069] | 92 |
| SDKCSAGWLTMCVQLGLCA [BCY10065] | 34.1 |
| SDKCSAGWLT[HPhe]CQKLHLCA [BCY10064] | 20.5 |
| SDKCSA[HSer]WLTMCQKLHLCA [BCY10057] | 31.8 |
| SDKCS[HSer]GWLTMCQKLHLCA [BCY10061] | 33.7 |
| SDKCS[dA]GWLTMCQKLHLCA [BCY10060] | 229 |
| SD[HSer]CSAGWLTMCQKLHLCA [BCY10053] | 47.5 |
| [Ac]CSAGWLTMCKQLNLCPSH [BCY10942] | 24.1 |
| [Ac]DKCSAGWLTMCKQLNLCPSH [BCY10940] | 2.32 |
| [Ac]DKCS[Aad]GWLTMCLKLHLC [BCY11823] | 17.7 |
| [Ac]DKCS[Aad]GWLTMCQKLHLC [BCY11818] | 30.1 |
| [Ac]EKCS[Aad]GWLTMCQKLHLC [BCY11821] | 17.5 |
| [Ac]KCSAGWLTMCKQLNLCPSH [BCY10941] | 3.67 |
| [Ac]KCS[Aad]GWLTMCQKLHLC [BCY11819] | 27.3 |
| [Ac]SDK-(SEQ ID NO: 42)-P [BCY10935] | 14.9 |
| [Ac]SDK-(SEQ ID NO: 42)-P-COOH [BCY10937] | 5.03 |

| Substance | Kd [nM] |
| --- | --- |
| [Ac]SDK-(SEQ ID NO: 42)-PS [BCY10934] | 10.9 |
| [Ac]SDK-(SEQ ID NO: 42)-PS-COOH [BCY10936] | 13 |
| [Ac]SDK-(SEQ ID NO: 51) [BCY10954] | 19.4 |
| [Ac]SDKCSAEWLTMCQKLHLC [BCY10947] | 31.1 |
| [Ac]SDKCSAGWLTMCEKLHLC [BCY10949] | 18.7 |
| [Ac]SDKCSAGWLTMCKQLNLC-COOH [BCY10938] | 12.2 |
| [Ac]SDKCSAGWLTMCQKLHLCA [BCY10075] | 28.6 |
| [Ac]SDKCSAGWLTMCQKLHLCPSH [BCY10943] | 7.76 |
| [Ac]SDKCSAGWLTMCQKLH[Cpa]C [BCY10956] | 24.9 |
| [Ac]SDKCSAGWLTMCQRLHLC [BCY10078] | 12.2 |
| [Ac]SDKCSAGWLTMC[Aad]KLHLC [BCY10946] | 13.1 |
| [Ac]SDKCSAGWLTMC[Cpa]KLHLC [BCY10950] | 8.73 |
| [Ac]SDKCSAG[7-AzaW]LTMCQKLHLC [BCY10945] | 147 |
| [Ac]SDKCSA[Aad]WLTMCQKLHLC [BCY10948] | 97.5 |
| [Ac]SDKCS[Aad]GWLTMCLKLHLC [BCY11822] | 16.5 |
| [Ac]SDKCS[Aad]GWLTMCQKLHLC [BCY10961] | 7.42 |
| [Ac]SDKC[AlloThr]AGWLTMCQKLHLC [BCY10952] | 108 |
| [Ac]SDRCSAGWLTMCQKLHLC [BCY10076] | 14.5 |
| [Ac]SD[HArg]CS[Aib]GWLT[hPhe]CLKL[Aib]LCPSH [BCY10944] | 10.7 |
| [Ac]SEKCSAGWLTMCQKLHLC [BCY10951] | 7.28 |
| [Ac]SEKCS[Aad]GWLTMCQKLHLC [BCY11820] | 17.4 |
| [Ac][dS]DKCSAGWLTMCQKLHLCA [BCY10051] | 20.7 |

target: T1, human PD-L1; assay: PD-L1 Direct Binding Assay (fluorescence polarisation), human; settings: Human Direct Binding Assay, fluorescence polarisation; read-out: Kd
Experimental: Affinity of the peptides of the invention for human PD-L1 (Ki) was determined using a fluorescence polarisation assay, in accordance with the methods disclosed in WO2016/067035. Peptides of the invention with a fluorescent tag (either fluorescein, SIGMA or Alexa Fluor488™, Fisher Scientific) were diluted to 2.5 nM in PBS with 0.01% tween 20 or 50 mM HEPES with 100 mM NaCl and 0.01% tween pH 7.4 (both referred to as assay buffer). This was combined with a titration of protein in the same assay buffer as the peptide to give 1 nM peptide in a total volume of 25 μL in a black walled and bottomed low bind low volume 384 well plates, typically 5 μL assay buffer, 10 μL protein then 10 μL fluorescent peptide. One in two serial dilutions were used to give 12 different concentrations with top concentrations ranging from 500 nM for known high affinity binders to 10 μM for low affinity binders and selectivity assays. Measurements were conducted on a BMG PHERAstar FS equipped with an “FP 485 520 520” optic module which excites at 485 nm and detects parallel and perpendicular emission at 520 nm. The PHERAstar FS was set at 25° C. with 200 flashes per well and a positioning delay of 0.1 second, with each well measured at 5 to 10 minute intervals for 60 minutes. The gain used for analysis was determined for each tracer at the end of the 60 minutes where there was no protein in the well. Data was analysed using Systat Sigmaplot version 12.0. mP values were fit to a user defined quadratic equation to generate a Kd value: f=ymin+(ymax−ymin)/Lig*((x+Lig+Kd)/2−sqrt((((x+Lig+Kd)/2)^2)−(Lig*x))). “Lig” was a defined value of the concentration of tracer used.

| Substance | Kd [nM] |
| --- | --- |
| ACDVFTHCILLAKPCA [BCY526] | 379 |
| ACSAEWRNMCVELNLCA [BCY538] | 524 |
| ACSSSWTNMCVQLGLCA[Sar]6[KFI] [BCY3810] | 32.9 |
| ACSWSWLTMCKQLNLCPSH[Sar]6[KFI] [BCY581] | 24.2 |
| ACSWSWLTMCQKLDLCDHEN[Sar]6[KFI] [BCY582] | 176 |
| ADVCSPQWLTMCQKLHLCA[Sar]6[KFI] [BCY573] | 30.2 |
| AERCSESWSTMCQKLHLCA[Sar]6[KFI] [BCY576] | 124 |
| AGSCSPAWLTMCQKLHLCA[Sar]6[KFI] [BCY570] | 80.2 |
| APVCSPGWLTMCQKLHLCA[Sar]6[KFI] [BCY572] | 45.5 |
| AQTCSPEWLTMCQKLHLCA[Sar]6[KFI] [BCY571] | 125 |
| ERVCSDSWKTMCQKLHLCA[Sar]6[KFI] [BCY575] | 134 |
| FI-(B-Ala)-Sar5-ACSWSWLTMCQKLHLCA [73-07-00-N001] | 16.9 |
| GNKCSPSWLTMCQKLHLCA[Sar]6[KFI] [BCY574] | 16.9 |
| KELCSPSWRNMCQKLHLCA[Sar]6[KFI] [BCY579] | 58.6 |
| KELCSPSWRTMCQKLHLCA[Sar]6[KFI] [BCY578] | 55.1 |
| KPKCSPSWLTMCQKLHLCA[Sar]6[KFI] [BCY580] | 51 |
| QAEKCSWSWLNMCQKLHLCA[Sar]6[KFI] [BCY8210] | 9.97 |

| Substance | Kd [nM] |
| --- | --- |
| QQECSNSWLTMCQKLHLCA[Sar]6[KFI] [BCY569] | 83.9 |
| REECSSSWLTMCQKLHLCA[Sar]6[KFI] [BCY3812] | 65.3 |
| RENCSDEWLTMCQKLHLCA[Sar]6[KFI] [BCY568] | 79 |
| SDKCSAGWLTMCQKLHLCA[Sar]6[KFI] [BCY566] | 12.6 |
| SGKCSNSWLTMCQKLHLCA[Sar]6[KFI] [BCY577] | 51.5 |
| VERCSDGWLTMCQKLHLCA[Sar]6[KFI] [BCY567] | 16.4 |
| [FI]G[Sar]5ACSSSWTNMCVQLGLCA [BCY3809] | 57.4 |
| [FI]G[Sar]5KELCSPSWRTMCQKLHLCA [BCY3811] | 54.9 |
| [FI][B-Ala][Sar]5ACSAEWRNMCVELNLCA [BCY560] | 492 |
| [FI][B-Ala][Sar]5ACSDQWMQMCSKLTCA [BCY562] | 935 |
| [FI][B-Ala][Sar]5ACSESWRNMCVQLNLCA [BCY3808] | 43.6 |
| [FI][B-Ala][Sar]5ACSESWSNMCVSLGLCA [BCY559] | 438 |
| [FI][B-Ala][Sar]5ACSPEWKNMCITLNLCA [BCY561] | 365 |
| [FI][B-Ala][Sar]5ACSTSWMNLCKQLNLCA [BCY553] | 495 |
| [FI][B-Ala][Sar]5ACSWSWLTMCQKLHLCA [BCY552] | 121 |
| [FI][B-Ala][Sar]5ACTPNWNAMCLKLNLCA [BCY555] | 748 |

same assay, conditions: determined using the direct binding protocol; read-out: Kd of fluorescent competition tracer

| Substance | Kd [nM] |
| --- | --- |
| FI-G-Sar5-ACPDPHNICHLWCA [reference compound] | 68.8 |

target: T1, human PD-L1; assay: PD-L1 Competition Binding Assay (fluorescence polarisation); settings: competition with FI-G-Sar5-ACPDPHNICHLWCA
Experimental: Peptides were diluted to an appropriate concentration in assay buffer as described in the direct binding assay with a maximum of 5% DMSO, then serially diluted 1 in 2. Five μL of diluted peptide was added to the plate followed by 10 μL of human PD-L1, then 10 μL fluorescent peptide added. Measurements were conducted as for the direct binding assay, however the gain was determined prior to the first measurement. Data analysis was in Systat Sigmaplot version 12.0 where the mP values were fit to a user defined cubic equation to generate a Ki value:
f=ymin+(ymax−ymin)/Lig*((Lig*((2*((Klig+Kcomp+Lig+Comp−Prot*c)^2−3*(Kcomp*(Lig−Prot*c)+Klig*(Comp−Prot*c)+Klig*Kcomp))^0.5*COS(ARCCOS((−2*(Klig+Kcomp+Lig+Comp−Prot*c)^3+9*(Klig+Kcomp+Lig+Comp−Prot*c)*(Kcomp*(Lig−Prot*c)+Klig*(Comp−Prot*c)+Klig*Kcomp)−27*(−1*Klig*Kcomp*Prot*c))/(2*((((Klig+Kcomp+Lig+Comp−Prot*c)^2−3*(Kcomp*(Lig−Prot*c)+Klig*(Comp−Prot*c)+Klig*Kcomp))^3)^0.5)))/3))−(Klig+Kcomp+Lig+Comp−Prot*c)))/((3*Klig)+((2*((Klig+Kcomp+Lig+Comp−Prot*c)^2−3*(Kcomp*(Lig−Prot*c)+Klig*(Comp−Prot*c)+Klig*Kcomp))^0.5*COS(ARCCOS((−2*(Klig+Kcomp+Lig+Comp−Prot*c)^3+9*(Klig+Kcomp+Lig+Comp−Prot*c)*(Kcomp*(Lig−Prot*c)+Klig*(Comp−Prot*c)+Klig*Kcomp)−27*(−1*Klig*Kcomp*Prot*c))/(2*((((Klig+Kcomp+Lig+Comp−Prot*c)^2−3*(Kcomp*(Lig−Prot*c)+Klig*(Comp−Prot*c)+Klig*Kcomp))^3)^0.5)))/3))−(Klig+Kcomp+Lig+Comp−Prot*c)))). “Lig”, “KLig” and “Prot” were all defined values relating to: fluorescent peptide concentration, the Kd of the fluorescent peptide and PD-L1 concentration respectively.

| Substance | Ki [nM] |
| --- | --- |
| ACDVFTHCILLAKPCA [BCY526] | 379 ± 96.4 |
| ACSAEWRNMCVELNLCA [BCY538] | 524 |
